Our source for the IC50 values is patent US6521611B2 (Eli Lilly and Company, priority 1996, dated 2003).

The chains behind the UniProt entries cited, without tags or fusion partners.
UniProt P37288, whole entry: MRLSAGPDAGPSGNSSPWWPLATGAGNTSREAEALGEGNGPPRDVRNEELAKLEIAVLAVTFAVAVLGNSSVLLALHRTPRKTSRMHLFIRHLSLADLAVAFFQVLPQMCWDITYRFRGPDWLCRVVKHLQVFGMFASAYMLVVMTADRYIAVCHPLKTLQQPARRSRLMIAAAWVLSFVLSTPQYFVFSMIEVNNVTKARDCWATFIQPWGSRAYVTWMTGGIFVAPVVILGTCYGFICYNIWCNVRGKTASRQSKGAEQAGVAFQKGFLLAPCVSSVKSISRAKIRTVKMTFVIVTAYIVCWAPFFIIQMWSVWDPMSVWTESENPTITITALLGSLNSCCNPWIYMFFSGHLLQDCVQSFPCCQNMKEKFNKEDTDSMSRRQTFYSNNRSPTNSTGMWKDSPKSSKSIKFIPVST

The target in test [1] is T1, vasopressin V1a receptor (Homo sapiens, UniProt P37288). In words: human vasopressin V1a receptor binding, [3H]PMP-AVP, hV1a (CHO) cell membranes. Also noted: expressed in transfected cells; host or cells: CHO (hV1a cell line), membrane preparation. The note with it: [3H]PMP-AVP 0.2 nM, read-out: BINDING AFFINITY (IC50 (nM)). On the procedure: The human vasopressin V1a receptor has been cloned and expressed (Thibonnier et al., Journal of Biological Chemistry, 269, 3304-3310 (1994)). The nucleotide sequence has been deposited in the EMBL Databank under accession number Z11690.
The hV1a cell line was grown in alpha-MEM (alpha modification of Minimum essential medium Eagle, Sigma, St. Louis, Mo., USA) with 10% fetal bovine serum and 250 μg/ml G418 (Gibco, Grand Island, N.Y., USA). To prepare membranes, hV1a cells were grown to confluency in 20 roller bottles. Cells were dissociated with enzyme-free cell dissociation medium (Specialty Media, Lavallette, N.J., USA) and centrifuged at 2500 rpm for 10 minutes. The pellet was resuspended in 40 mL of Tris-HCl (tris[hydroxymethyl]aminomethane hydrochloride) buffer (50 mM, pH 7.4) and homogenized for 1 minute with a Tekmar Tissumizer (Cincinnatti, Ohio USA). The suspension was centrifuged at 40,000×g for 10 minutes. The pellet was resuspended and centrifuged as above. The final pellet was suspended in 80 mL of Tris 7.4 buffer and stored in 4 mL aliquots at −80° C. For assay, aliquots were resuspended in assay buffer and diluted to 125 μg protein per mL. Protein concentration was determined by BCA assay (Pierce, Rockford, Ill., USA).
Assay buffer was prepared by adjusting the pH of a solution of 50 mMol HEPES (N-2-Hydroxyethylpiperazine-N′-2-ethanesulfonic acid, Sigma, St. Louis, Mo., USA), 5 mMol MgCl2, and 1 mMol dithiothreitol pH 7.4 with NaOH, after which 40 μg/mL bacitracin and 10 μg/mL aprotinin were added. The radioligand for binding assays was [^3H]PMP-AVP (Manning vasopressin antagonist, 56 Ci/mMol, DuPont NEN, Boston, MA, USA). […] The filters were washed with ice-cold 50 mM Tris-HCl (pH 7.7 at 25° C.) and the filter circles were placed in scintillation vials, to which were then added 5 mL Ready Protein Plus scintillation fluid, and counted in a liquid scintillation counter. […] IC50 values were calculated by nonlinear least-squares curve-fitting to a 4-parameter logistic model.

Test [2] concerns the target T1, vasopressin V1a receptor. In words: inhibition of AVP-induced platelet aggregation in human platelet-rich plasma. Format: cell-based. Further details: from tissue; host or cells: human blood platelets (platelet-rich plasma or washed platelets). The note with it: AVP 30 nM, indomethacin 3 μM.
The target of test [3] is T1, vasopressin V1a receptor. The test is described as follows: inhibition of AVP-induced aggregation of washed platelets. It is filed as cell-based. Also noted: from tissue; host or cells: human blood platelets (platelet-rich plasma or washed platelets). The note with it: AVP 30 nM, fibrinogen 0.2 mg/mL, calcium chloride 1 mM.

The IC50 is the concentration needed to halve the response being measured. As for `CC(C)(C)C(O)C(C(=O)OCc1ccccc1)N1C(=O)C(N2C(=O)OCC2c2ccccc2)C1C=Cc1ccccc1` (mixture of isomers) [Example 38, Benzyl 2(R,S)-[1-hydroxy-2,2-dimethylpropyl]-2-[3(S)-(4(S)-phenyloxazolidin-2-on-3-yl)-4(R)-(2-styryl)-azetidin-2-on-1-yl]acetate], the IC50 at vasopressin V1a receptor [1] was 10 nM.

Consider `CC(C)CC(C(=O)OCc1ccccc1)N1C(=O)C(N2C(=O)OCC2c2ccccc2)C1C=Cc1ccccc1` [Example 7, Benzyl 2-(S)-isobutyl-2-[3(S)-(4(S)-phenyloxazolidin-2-on-3-yl)-4(R)-(2-styryl)-azetidin-2-on-1-yl]acetate], for which, at vasopressin V1a receptor [1], the IC50 amounted to 39 nM.

On to `CC1(C(C(=O)NCc2ccccc2)N2C(=O)C(N3C(=O)OCC3c3ccccc3)C2C=Cc2ccccc2)OCCO1` [Example 30, N-[Benzyl]-2-[(1,1-ethyleneketal)acetyl]-2-[3(S)-(4(S)-phenyloxazolidin-2-on-3-yl)-4(R)-(2-styryl)-azetidin-2-on-1-yl)acetamide], for which the IC50 at vasopressin V1a receptor [1] amounted to 43 nM; on vasopressin V1a receptor [2], 630 nM; on vasopressin V1a receptor [3], 48 nM.
